Experimental data taken from patent US10392369B2, “N-[(pyrimidinyloxy)propanyl]benzamides” (Boehringer Ingelheim International GmbH, priority 2016, dated 2019).

Sequences of proteins named here, by UniProt entry; tags and fusion partners are left off.
UniProt O43613, whole entry, species assumed: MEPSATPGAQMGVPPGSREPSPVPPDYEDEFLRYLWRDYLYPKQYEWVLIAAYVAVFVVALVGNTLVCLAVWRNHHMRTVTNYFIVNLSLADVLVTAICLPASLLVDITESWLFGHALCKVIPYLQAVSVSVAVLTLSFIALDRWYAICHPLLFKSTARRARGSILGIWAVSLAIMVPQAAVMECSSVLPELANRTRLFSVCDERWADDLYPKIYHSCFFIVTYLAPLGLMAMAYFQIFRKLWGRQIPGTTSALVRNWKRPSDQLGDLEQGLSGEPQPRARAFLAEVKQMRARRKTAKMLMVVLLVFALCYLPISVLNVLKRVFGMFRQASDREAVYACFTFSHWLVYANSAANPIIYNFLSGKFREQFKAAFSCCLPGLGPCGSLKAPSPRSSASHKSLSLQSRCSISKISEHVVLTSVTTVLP

Biological target: OX1R (Homo sapiens, UniProt O43613)
Experiment: OX1R assay of WO2013/187466 (fluorescence measurement of intracellular Ca2+ changes)
Assay type: cell-based
Conditions: selectivity ratio, as described in WO2013/187466

OX2R IC50/OX1R IC50: 411
Structure (SMILES): CCN(C(=O)c1cc(F)ccc1-c1ncccn1)[C@@H](C)Cn1nnc(-c2ccc(F)cc2)n1
